Two substances from patent US4774345A, “Amine-complexed zinc salts of organic diacids” (Engelhard Corporation, priority 1986, dated 1988) can be followed below.

Data set [1] in a line: Water solubility, modified ASTM-D1766. The following applies: Table VI.
A short description of data set [2]: Salt spray exposure, Example VI (ASTM B117-73; alkyd and latex primers). To be noted: FIG. 3; alkyd formulation.

For Zinc Dodecanedioate Triethanolamine, the “Solubility Description” value in data set [1] is “PINS (practically insoluble (<.1 g/100 cc H2 O))”. In data set [1] (modified ASTM-D1766), the Solubility result is “.001 g/100 cc H2 O”. For the substance zinc dodecanedioate triethanolamine, in data set [2], the “Salt spray durability, in words” value is given as “superior to "Zinc Yellow" (zinc chromate) in salt spray durability”.
